What was measured:
hCXCR4 F189V (human) [1] = target: hCXCR4 F189V (human) (UniProt P61073); test: flow cytometry, transfected HEK293T cells; normalisation reference (column 100 nM)
hCXCR4 D187V (human) [2] = target: hCXCR4 D187V (human) (UniProt P61073); test: as above
hCXCR4 F189V (human) [3] = target: hCXCR4 F189V (human) (UniProt P61073); test: flow cytometry, transfected HEK293T cells; normalisation reference (column 10 nM)
hCXCR4 D187V (human) [4] = target: hCXCR4 D187V (human) (UniProt P61073); test: as above

Protein sequences, listed by entry. Tags and fused reporters are not part of them.
UniProt P61073, whole entry F189V: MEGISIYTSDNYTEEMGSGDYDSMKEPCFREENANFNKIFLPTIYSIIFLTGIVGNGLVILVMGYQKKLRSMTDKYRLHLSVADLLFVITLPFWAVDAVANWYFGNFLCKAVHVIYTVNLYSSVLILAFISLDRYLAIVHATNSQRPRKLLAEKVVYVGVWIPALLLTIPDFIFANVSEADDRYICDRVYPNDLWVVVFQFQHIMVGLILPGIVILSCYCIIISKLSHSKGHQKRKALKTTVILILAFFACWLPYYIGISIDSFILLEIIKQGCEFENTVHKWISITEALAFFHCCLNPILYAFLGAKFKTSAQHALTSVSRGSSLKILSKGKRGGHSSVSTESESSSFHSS
UniProt P61073, whole entry D187V: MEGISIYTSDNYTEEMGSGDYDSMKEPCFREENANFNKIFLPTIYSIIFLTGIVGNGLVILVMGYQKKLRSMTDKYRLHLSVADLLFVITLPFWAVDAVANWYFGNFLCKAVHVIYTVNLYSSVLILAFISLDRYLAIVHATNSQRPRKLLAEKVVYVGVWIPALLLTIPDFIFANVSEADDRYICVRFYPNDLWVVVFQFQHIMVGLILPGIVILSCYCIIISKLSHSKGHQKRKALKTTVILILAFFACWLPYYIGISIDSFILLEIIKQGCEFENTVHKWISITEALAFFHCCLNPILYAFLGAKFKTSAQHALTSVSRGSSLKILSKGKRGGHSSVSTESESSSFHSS

Measured: % binding relative to hCXCR4

anti-CXCR4 monoclonal antibody 12G5 (R&D Systems, MAB170)
100%: all assays above
